Common to all, as to assay: co-IP, anti-FLAG, lysate of N-FLAG B3GNT2 cells, mass spectrometry
The target in one test is ARPC2 (UniProt O15144 1-300).
A further test has as its target T1, MYO1D (UniProt O94832 2-1006).
T1 construct: also called NP_056009.1 (+1)
T1 sequence (looked up): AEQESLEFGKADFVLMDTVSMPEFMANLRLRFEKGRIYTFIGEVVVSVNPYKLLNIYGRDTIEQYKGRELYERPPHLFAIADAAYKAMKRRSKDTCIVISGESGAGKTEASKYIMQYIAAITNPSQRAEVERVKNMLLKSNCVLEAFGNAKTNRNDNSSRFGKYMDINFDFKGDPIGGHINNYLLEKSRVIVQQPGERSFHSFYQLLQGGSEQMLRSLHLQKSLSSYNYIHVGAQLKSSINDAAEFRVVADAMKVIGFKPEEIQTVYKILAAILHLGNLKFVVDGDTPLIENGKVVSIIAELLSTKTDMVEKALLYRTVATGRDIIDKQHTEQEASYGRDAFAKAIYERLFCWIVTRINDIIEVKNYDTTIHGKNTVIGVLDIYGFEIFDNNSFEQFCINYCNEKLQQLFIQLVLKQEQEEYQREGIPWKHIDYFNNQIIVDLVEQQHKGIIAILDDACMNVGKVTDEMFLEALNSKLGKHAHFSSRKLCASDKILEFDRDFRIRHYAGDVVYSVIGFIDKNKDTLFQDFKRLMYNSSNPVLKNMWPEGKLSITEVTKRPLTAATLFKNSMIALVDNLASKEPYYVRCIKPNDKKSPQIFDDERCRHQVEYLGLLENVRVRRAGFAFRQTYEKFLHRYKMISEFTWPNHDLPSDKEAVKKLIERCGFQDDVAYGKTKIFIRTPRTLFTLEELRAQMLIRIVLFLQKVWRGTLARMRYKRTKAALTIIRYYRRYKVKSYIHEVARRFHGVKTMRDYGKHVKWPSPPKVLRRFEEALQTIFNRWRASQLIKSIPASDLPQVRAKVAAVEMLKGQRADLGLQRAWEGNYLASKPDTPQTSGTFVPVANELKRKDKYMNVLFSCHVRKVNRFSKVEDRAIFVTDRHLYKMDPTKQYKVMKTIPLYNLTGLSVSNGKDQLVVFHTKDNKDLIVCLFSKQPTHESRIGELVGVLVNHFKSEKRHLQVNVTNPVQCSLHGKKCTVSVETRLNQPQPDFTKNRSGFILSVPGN

The target in another test is T2, TNC (UniProt P24821 23-2201, limits assumed).
T2 construct: also called NP_002151.2 (+4)

A further test deals with T3, RNASE1 (UniProt P07998 29-156).
T3 construct: also called NP_002924.1
T3 sequence (looked up): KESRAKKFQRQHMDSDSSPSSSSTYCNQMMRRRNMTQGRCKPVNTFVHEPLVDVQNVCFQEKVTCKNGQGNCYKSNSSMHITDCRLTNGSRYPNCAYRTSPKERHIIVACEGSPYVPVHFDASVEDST

For the next test, the target named is T4, RBMX (UniProt P38159 1-391).
T4 construct: also called NP_002130.2

The target of another test is T5, TM9SF3 (UniProt Q9HD45 29-589).
T5 construct: also called NP_064508.3 (+1)
T5 sequence (looked up): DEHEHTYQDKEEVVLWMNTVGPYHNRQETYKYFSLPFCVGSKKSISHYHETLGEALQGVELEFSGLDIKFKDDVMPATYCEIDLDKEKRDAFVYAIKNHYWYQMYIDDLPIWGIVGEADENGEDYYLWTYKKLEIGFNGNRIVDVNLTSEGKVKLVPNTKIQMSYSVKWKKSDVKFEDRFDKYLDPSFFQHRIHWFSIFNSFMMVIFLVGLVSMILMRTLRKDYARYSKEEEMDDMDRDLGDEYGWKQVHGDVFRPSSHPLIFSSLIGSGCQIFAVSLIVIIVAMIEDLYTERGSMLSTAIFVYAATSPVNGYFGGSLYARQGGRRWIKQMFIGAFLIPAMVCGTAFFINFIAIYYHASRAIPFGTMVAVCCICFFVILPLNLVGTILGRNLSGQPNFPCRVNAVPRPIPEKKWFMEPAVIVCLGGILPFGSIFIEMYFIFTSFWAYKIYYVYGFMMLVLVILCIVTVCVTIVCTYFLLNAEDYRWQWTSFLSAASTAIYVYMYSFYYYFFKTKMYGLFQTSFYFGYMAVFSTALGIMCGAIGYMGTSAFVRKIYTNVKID

Another test deals with T6, ABCF1 (UniProt Q8NE71 1-845).
T6 construct: also called NP_001020262.1 (+1)

The next test addresses T7, LAMB1 (UniProt P07942 22-1786).
T7 construct: also called NP_002282.2 (+1)

The next test deals with T8, PGK1 (UniProt P00558 2-417).
T8 construct: also called NP_000282.1
T8 sequence (looked up): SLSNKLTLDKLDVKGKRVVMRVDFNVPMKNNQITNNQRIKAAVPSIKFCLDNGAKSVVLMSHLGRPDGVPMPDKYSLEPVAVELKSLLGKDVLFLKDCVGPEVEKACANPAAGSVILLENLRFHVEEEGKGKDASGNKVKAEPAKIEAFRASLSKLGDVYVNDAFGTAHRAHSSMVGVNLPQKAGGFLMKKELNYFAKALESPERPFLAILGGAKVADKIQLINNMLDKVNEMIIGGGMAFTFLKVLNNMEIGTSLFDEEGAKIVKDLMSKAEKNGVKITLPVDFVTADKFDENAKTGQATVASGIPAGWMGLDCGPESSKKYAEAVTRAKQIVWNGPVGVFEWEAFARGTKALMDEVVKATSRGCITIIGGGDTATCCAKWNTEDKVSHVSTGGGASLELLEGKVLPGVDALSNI

For another test, the target named is T9, GNAS (UniProt Q5JWF2 1-1037, limits assumed).
T9 construct: The 111 kDa entry is the extra-large form of GNAS; also called NP_536350.2 (+3)

In the next test the target is T10, NCL (UniProt P19338 2-710).
T10 construct: also called NP_005372.2

The next test deals with T11, HLA-A (UniProt P04439 25-365, limits assumed).
T11 construct: also called XP_024308303.1

Another test has as its target T12, MAP1B (UniProt P46821 2-2468, limits assumed).
T12 construct: also called NP_005900.2

A further test addresses T13, CEP170 (UniProt Q5SW79 1-1584, limits assumed).
T13 construct: also called XP_016858423.1

The next test concerns the target T14, PPIB (UniProt P23284 34-216).
T14 construct: also called NP_000933.1

Another test addresses T15, LRP2 (UniProt P98164 26-4655).
T15 construct: also called NP_004516.2

B1: N-terminal FLAG tagged B3GNT2 (enzyme, human, UniProt Q9NY97 1-397, looked up)
chain: MSVGRRRIKLLGILMMANVFIYFIMEVSKSSSQEKNGKGEVIIPKEKFWKISTPPEAYWNREQEKLNRQYNPILSMLTNQTGEAGRLSNISHLNYCEPDLRVTSVVTGFNNLPDRFKDFLLYLRCRNYSLLIDQPDKCAKKPFLLLAIKSLTPHFARRQAIRESWGQESNAGNQTVVRVFLLGQTPPEDNHPDLSDMLKFESEKHQDILMWNYRDTFFNLSLKEVLFLRWVSTSCPDTEFVFKGDDDVFVNTHHILNYLNSLSKTKAKDLFIGDVIHNAGPHRDKKLKYYIPEVVYSGLYPPYAGGGGFLYSGHLALRLYHITDQVHLYPIDDVYTGMCLQKLGLVPEKHKGFRTFDIEEKNKNNICSYVDLMLVHSRKPQEMIDIWSQLQSAHLKC
notes: Bait of the co-IP; overexpressed from a synthesized ORF and pulled down from cell lysate with mouse anti-FLAG; also called N-FLAG B3GNT2; N-term FLAG; not shown: FLAG tag at the N-terminus
Turning to B1, the co-IP/MS count in the test with ARPC2, with MYO1D, with TNC, with RNASE1, with RBMX and with TM9SF3 was 0 throughout. Also, the co-IP/MS count is 0 in the test with ABCF1; 0 in the test with LAMB1; 0 with PGK1; 0 with GNAS; 0 with NCL; 6 with HLA-A. Further, the co-IP/MS count with MAP1B, in the test with CEP170, in the test with PPIB and with LRP2 was 0 in each case.

The values are drawn from patent US20240261333A1 (published 2024).
